Literature values, collected in patent US6428819B1, “Plant extracts for the preparation of pharmaceutical compositions for the treatment of hepatitis” (priority 1996, dated 2002).

System: hepatitis C
Settings: in combination with ribavirin

B1: interferon-β: interferon beta given in combination with ribavirin (protein, UniProt P01574 22-187, looked up)
Interferon beta: MSYNLLGFLQRSSNFQCQKLLWQLNGRLEYCLKDRMNFDIPEEIKQLQQFQKEDAALTIYEMLQNIFAIFRQDSSSTGWNETIVENLLANVYHQINHLKTVLEEKLEKEDFTRGKLMSSLHLKRYYGRILHYLKAKEYSHCAWTIVRVEILRNFYFINRLTGYLRN
**Q.** With B1 as the molecule, how does the “patients with sustained responses” value read?
**A.** one third
